Patent US9776995B2, “Bicyclic sulfonamide compounds as sodium channel inhibitors” (AMGEN INC., priority 2013, dated 2017)

The chains behind the UniProt entries cited, without tags or fusion partners.
UniProt Q15858, whole entry: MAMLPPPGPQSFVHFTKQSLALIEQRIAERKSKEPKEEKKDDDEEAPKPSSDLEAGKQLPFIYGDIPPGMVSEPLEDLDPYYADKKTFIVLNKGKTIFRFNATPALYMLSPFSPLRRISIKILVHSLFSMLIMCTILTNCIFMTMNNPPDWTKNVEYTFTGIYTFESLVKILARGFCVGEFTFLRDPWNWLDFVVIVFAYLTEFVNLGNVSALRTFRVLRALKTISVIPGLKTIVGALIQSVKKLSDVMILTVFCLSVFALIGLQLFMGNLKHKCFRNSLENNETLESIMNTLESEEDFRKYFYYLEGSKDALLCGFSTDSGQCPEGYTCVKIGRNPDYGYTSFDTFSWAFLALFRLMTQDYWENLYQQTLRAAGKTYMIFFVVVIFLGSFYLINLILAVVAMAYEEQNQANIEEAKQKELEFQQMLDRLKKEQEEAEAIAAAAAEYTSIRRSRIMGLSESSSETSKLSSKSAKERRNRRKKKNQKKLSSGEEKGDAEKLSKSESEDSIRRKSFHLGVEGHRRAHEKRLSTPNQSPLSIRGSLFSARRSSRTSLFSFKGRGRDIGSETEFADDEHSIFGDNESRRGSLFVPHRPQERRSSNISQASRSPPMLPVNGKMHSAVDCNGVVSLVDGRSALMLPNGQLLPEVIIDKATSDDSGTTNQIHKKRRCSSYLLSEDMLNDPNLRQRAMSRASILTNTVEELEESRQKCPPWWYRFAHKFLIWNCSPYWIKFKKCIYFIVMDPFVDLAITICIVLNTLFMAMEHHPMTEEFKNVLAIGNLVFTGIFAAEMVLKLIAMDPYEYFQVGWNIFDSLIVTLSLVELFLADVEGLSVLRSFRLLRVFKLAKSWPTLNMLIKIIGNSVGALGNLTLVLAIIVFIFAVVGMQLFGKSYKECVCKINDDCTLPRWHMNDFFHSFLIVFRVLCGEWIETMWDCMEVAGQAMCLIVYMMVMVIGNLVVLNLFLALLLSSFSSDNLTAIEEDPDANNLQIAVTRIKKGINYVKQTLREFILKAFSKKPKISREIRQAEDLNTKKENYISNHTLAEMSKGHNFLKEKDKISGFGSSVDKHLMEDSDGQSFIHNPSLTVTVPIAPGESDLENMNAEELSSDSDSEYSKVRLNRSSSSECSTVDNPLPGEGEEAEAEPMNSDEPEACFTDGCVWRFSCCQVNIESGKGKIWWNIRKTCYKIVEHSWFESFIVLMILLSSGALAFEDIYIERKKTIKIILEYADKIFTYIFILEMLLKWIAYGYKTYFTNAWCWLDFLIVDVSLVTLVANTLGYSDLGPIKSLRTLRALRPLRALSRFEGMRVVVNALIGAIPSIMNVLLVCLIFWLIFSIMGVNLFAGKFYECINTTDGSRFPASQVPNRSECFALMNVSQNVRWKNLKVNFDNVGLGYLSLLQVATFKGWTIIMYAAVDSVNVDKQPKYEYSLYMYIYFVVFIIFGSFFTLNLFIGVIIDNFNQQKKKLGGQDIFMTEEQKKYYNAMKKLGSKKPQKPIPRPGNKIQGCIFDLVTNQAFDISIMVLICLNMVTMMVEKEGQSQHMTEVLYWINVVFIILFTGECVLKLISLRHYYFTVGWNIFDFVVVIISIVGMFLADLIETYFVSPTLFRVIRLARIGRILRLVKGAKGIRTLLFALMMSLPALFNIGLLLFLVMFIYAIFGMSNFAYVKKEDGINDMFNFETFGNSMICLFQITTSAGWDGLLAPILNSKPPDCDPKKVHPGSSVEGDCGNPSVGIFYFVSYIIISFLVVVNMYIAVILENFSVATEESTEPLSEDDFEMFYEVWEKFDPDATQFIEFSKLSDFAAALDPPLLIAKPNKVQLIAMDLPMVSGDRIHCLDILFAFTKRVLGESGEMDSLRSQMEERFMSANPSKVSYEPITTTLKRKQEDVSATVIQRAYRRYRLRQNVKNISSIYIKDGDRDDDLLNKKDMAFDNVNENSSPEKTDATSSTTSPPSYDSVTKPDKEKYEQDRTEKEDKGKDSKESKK

Experiments:
Nav 1.7 [1] = target: T1, Nav 1.7 (Homo sapiens (Human), UniProt Q15858); assay: Nav 1.7 in vitro PX assay (PatchXpress whole cell voltage clamp); assay type: cell-based; conditions: HEK 293 cells stably transfected with human Nav1.7, partially inactivated state;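 note: holding potential set for 20 to 50% inactivation, sodium current evoked by a 20 ms step to −10 mV, peak current inhibition read after compound exposure, 3–5 cells per concentration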
Nav 1.7 [2] = target: T1, Nav 1.7; assay: in-vitro Nav 1.7 PX data; assay type: cell-based; conditions: PatchXpress (PX)

SMILES: COc1cc(-c2cccc(F)c2)c(Cl)cc1-c1nc(C#N)cc2cc(S(=O)(=O)Nc3ccon3)ccc12 [Example 400, 1-(2-CHLORO-3′-FLUORO-5-METHOXY-4-BIPHENYLYL)-3-CYANO-N-3-ISOXAZOLYL-6-ISOQUINOLINESULFONAMIDE]
- IC50 (Nav 1.7 [1]): 128 nM

SMILES: COc1cc(-c2cc(F)cc(F)c2)c(Cl)cc1-c1nccc2cc(S(=O)(=O)Nc3nncs3)ccc12 [Example 380, 1-(2-chloro-3′,5′-difluoro-5-methoxy-4-biphenylyl)-N-1,3,4-thiadiazol-2-yl-6-isoquinolinesulfonamide]
- IC50 (Nav 1.7 [1]): 19 nM

SMILES: COc1cc(-c2cc(F)cnc2OC)c(C#N)cc1-c1nccc2cc(S(=O)(=O)Nc3ccon3)ccc12 [Example 83, 1-(5-cyano-4-(5-fluoro-2-methoxy-3-pyridinyl)-2-methoxyphenyl)-N-3-isoxazolyl-6-isoquinolinesulfonamide]
- IC50 (Nav 1.7 [2]): 236 nM
